In the library only some 0.59% were active in any assay of this set; here they are far more common.
a7 integrin act: activates integrin-mediated alleviation for muscular dystrophy; AID 624291; Potency, µM (highest dose often 38.3 µM), actives largely listed as activators; alpha7betagal myoblasts, beta-gal FDG fluorescence, 48 h; actives 0.064% (n = 350,000); active = well fitted activation curve with a large enough effect; inconclusive = small, poorly fitted or top-dose-only effect; inactive = no such curve, though single readings can be large or run the other way; note: nearly all actives have a fitted effect of over 60% in size
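Alpha7betagal+/- myoblasts (passage 13) were plated 16-24 hr, then exposed to compounds (1:260 dilution of DMSO stock) for 48 hours at 37C. After MPER lysis, β-galactosidase reporter activity was read as FDG fluorescence (ex 480/em 540) after 30 minutes.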
Rango complex inh: inhibitors of Rango-importin beta complex formation | Q14974 | Rango CFP/YFP FRET sensor + importin beta, 45 min | Potency, µM (highest dose often 92.2 µM) | actives 0.031% (n = 340,000); note: nearly all actives have a fitted effect of over 15% in size
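Inhibition scored from the CFP 486 nm/YFP 530 nm FRET ratio 45 min after adding 0.125 microM importin beta to 50 nM Rango biosensor preincubated 5 min with compound (room temperature, PBS with DTT, Tween-20, BSA). No-importin wells as positive control.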
uPA surface inh: blocks generation of uPA at the cell surface; cell surface uPA generation assay, qHTS; Potency, µM (series often up to 38.3 µM), actives largely listed as inhibitors; actives 0.31% (n = 330,000); active = well fitted inhibition curve with a large enough effect; inconclusive = small, poorly fitted or top-dose-only effect; inactive = no such curve, though single readings can be large or run the other way; tested in mouse RAW 264.7 cells; note: nearly all actives have a fitted effect of over 55% in size
Rango dissoc inh: prevents RanGTP from dissociating the Rango-importin beta complex; Biochemical FRET Rango-importin beta, RanGTP-induced dissociation; Potency, µM (top dose mostly 46.1 µM); actives 0.071% (n = 340,000); note: nearly all actives have a fitted effect of over 45% in size
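Recombinant Rango FRET biosensor (EYFP–snurportin 1 IBB–cerulean CFP10) at 0.1 uM premixed with 0.25 uM importin beta in PBS, 1 mM DTT, 0.02% Tween-20, 0.1% BSA. Compound added 5 min; RanGTP-RCC1 (0.6 uM Ran, 2 mM GTP, 0.2 uM RCC1) then triggers release, read at 45 min.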
Giardia kill: kills Giardia lamblia; Giardia lamblia trophozoite viability; activity change, % at 7.66 µM, hits read low; actives 0.15% (n = 340,000); AID 540267; in the data active = activity change below about -80%; inconclusive = between about -30% and that limit;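 note: parasites exposed to compound for two days anaerobically before the ATP read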
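ATP-content bioluminescence gauges trophozoite survival. Cells (100/well) receive compound and incubate anaerobically for 48 hrs at 37 deg C; detection reagent follows for 15-30 min at room temperature.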
Large screens that a line does not name were inactive; [ ] = dose if it differs, or a comment. Unless noted, calls come from the whole dose curve.

COc1ccc(N(C(=O)CCl)C(C(=O)NCCc2ccccc2)c2cccs2)cc1Cl (configuration not stated)	uPA surface inh 4µM
O=C(Nc1ccc(S(=O)(=O)Nc2ncccn2)cc1)c1cnc(Cl)c(Cl)c1	none
N#Cc1cccc(C(=O)Nc2ccc(S(=O)(=O)Nc3nccs3)cc2)c1	a7 integrin act inconclusive, Rango complex inh inconclusive, Rango dissoc inh 9.2µM
O=C(Nc1ccc(S(=O)(=O)Nc2nccs2)cc1)c1cccc(N2C(=O)c3ccccc3C2=O)c1	Rango complex inh inconclusive, Giardia kill inconclusive
O=C(Nc1ccc(S(=O)(=O)Nc2nccs2)cc1)c1cnc(Cl)c(Cl)c1	Rango complex inh inconclusive, Rango dissoc inh 10µM[inhibitor]
C[C@H]1NC(=O)[C@]2(C)[C@@H](c3ccccc3)[C@H]3COc4ccccc4[C@H]3N2C1=O	none
Clc1nc(-c2ccccn2)nc2scc(-c3ccccc3)c12	uPA surface inh 10µM, Giardia kill inconclusive
CC1CCN(c2nc(-c3cccnc3)nc3scc(-c4ccccc4)c23)CC1	none
COc1cc2c(cc1OC)-c1cc(Nc3cccc(C)c3)nc(=O)n1CC2	none
CCCCN(CCCC)CCNC(=O)c1cn(C)c2ccc(S(=O)(=O)N(C)C3CCCCC3)cc2c1=O	a7 integrin act 10µM
COc1cccc(C(=O)Nc2cccc(-c3ccc(N4CCOCC4)nn3)c2)c1	uPA surface inh 10µM
COc1ccc(C(=O)Nc2cccc(-c3ccc(N4CCOCC4)nn3)c2)cc1OC	none
CCC(=O)Nc1cccc(-c2ccc(N3CCCCC3)nn2)c1	uPA surface inh 0.89µM, Giardia kill inconclusive
CCC(=O)Nc1cccc(-c2ccc(N3CCN(C)CC3)nn2)c1	uPA surface inh inconclusive
COC(=O)/C=C/C(=O)N1CCN(c2ccccc2C)CC1	uPA surface inh 11µM
COC(=O)/C=C/C(=O)N1CCN(c2ccccc2)CC1	none
CCOc1cc2c(cc1O)C(=NOC)CC1C2CCC2(C)C(O)CCC12 (configuration not stated)	none
CC(C)(C)c1ccc(C(=O)NCCOc2ccccc2)cc1	none
COc1ccccc1C(=O)NCCOc1ccc(C(C)(C)C)cc1	a7 integrin act 8.9µM
COc1ccc(Nc2nc(NCCO)nc(N3CCCC3)n2)cc1	none (no result: a7 integrin act)
CCCNc1nc(Nc2ccc(C)cc2)nc(N2CCCC2)n1	Rango complex inh 46µM
CCN(CC)c1ccc(C(=O)OCC(=O)N2CCCC2)cc1	none
O=Cc1ccc(C(=O)OCC(=O)N2CCCC2)cc1	a7 integrin act 2.5µM (no result: uPA surface inh)
COc1ccc(C(=O)Nc2ccccc2C(=O)NCc2cccnc2)cc1	uPA surface inh 7.1µM
CCc1ccc(Sc2cc(C(=O)NCCN3CCOCC3)c3ccccc3n2)cc1	a7 integrin act 11µM
Cc1ccc(-c2cc3cccc[n+]3cc2-c2ccc(C)cc2)cc1	Rango complex inh inconclusive, uPA surface inh 10µM, Rango dissoc inh inconclusive
O=S(=O)(c1ccc2c(c1)OCO2)N1CCN(c2nc(-c3cccs3)nc3ccccc23)CC1	none (no result: a7 integrin act, Rango complex inh, uPA surface inh, Rango dissoc inh)
CCc1ccc(Nc2n[n+](-c3ccccc3)c(-c3c(Cl)cccc3Cl)s2)cc1	Rango complex inh inconclusive, uPA surface inh 13µM
Cc1ccc(-c2nc3ccccn3c2Nc2ccccc2C)o1	none (no result: a7 integrin act, Rango complex inh, uPA surface inh, Rango dissoc inh)
N/C(=N\OC(=O)COc1ccc(Br)cc1Cl)c1ccncc1	none
N/C(=N\OC(=O)COc1cc(Cl)c(Cl)cc1Cl)c1ccncc1	a7 integrin act 11µM
CCC[C@@H](CN1CCC[C@H]1CN1C(N)=NC[C@H]1C(C)C)N1C[C@@H](Cc2ccccc2)N(CCCC2CCCC2)C1=N	none
O=C(Nc1nc(-c2ccccn2)cs1)c1cccc(S(=O)(=O)N2CCOCC2)c1	uPA surface inh 10µM, Rango dissoc inh inconclusive
O=C(Nc1nc(-c2ccccn2)cs1)c1ccc(Cl)s1	uPA surface inh inconclusive
Cc1ccc(C(=O)Nc2nc(-c3ccccn3)cs2)s1	uPA surface inh 4.5µM
CCOc1cccc(C(=O)Nc2nc(-c3ccc(S(=O)(=O)N4CCOCC4)cc3)cs2)c1	Rango complex inh 65µM
O=C(NCc1ccc(F)cc1)c1cccc(S(=O)(=O)N2CCOCC2)c1	Rango complex inh 65µM
CCCc1cc(=O)oc2c(C)c(OCC(=O)NC3CCN(Cc4ccccc4)CC3)ccc12	none
O=C(NC1CC1)c1ccc2nc(-c3ccco3)c(-c3ccco3)nc2c1	none (no result: a7 integrin act, Rango complex inh, uPA surface inh, Rango dissoc inh)
